Experimental data from US20230391826A1 (SANFORD BURNHAM PREBYS MEDICAL DISCOVERY INSTITUTE, published 2023).
Like-named read-outs stand apart in the source and are kept apart here.

How the values were obtained:
[1] = target: T1, EphA2 extracellular domain fused to the Fc portion of an antibody (EphA2-Fc); assay: ELISA, inhibition of ephrinA5-AP binding to immobilized EphA2-Fc
T1 construct: extracellular domain; Immobilized on the ELISA wells; also called immobilized EphA2

[2] = target: T1, EphA2 extracellular domain fused to the …; assay: as above; remark: listed apart in the source

B1: CcamGA-WLA-YRPK-bio (peptide)
peptide: CGAWLAYPDSVPYRPK
modifications: N-terminal carbamidomethyl-cysteine (Ccam); biotin on the C-terminal Lys
notes: also called monomer (10); monomeric peptide (10)
An IC50 [1] of 27 nM and an IC50 [2] of 27 nM were found for B1 in this work.
